Literature values in patent publication US9457016B2, “Methods for treating polycystic kidney disease” (New York University, priority 2013, dated 2016).

What was measured:
[1] = system: P493 human lymphoma B cells; conditions: in vivo; cited from earlier work
[2] = system: P493 human lymphoma B cells; conditions: cited from earlier work

SMILES: Nc1nnc(CCSCCc2nnc(NC(=O)Cc3ccccc3)s2)s1 [compound 6, N-(5-{2-[2-(5-amino-[1,3,4]thiadiazol-2-yl)-ethylsulfanyl]-ethyl}-[1,3,4]thiadiazol-2-yl)-2-phenyl-acetamide]
- growth of P493 cells in a mouse xenograft model [1]: attenuated the growth
- growth of P493 human lymphoma B cells in vitro [2]: attenuated the growth
